Earlier results in patent publication US20030158089A1, “Administrative agents via the SMVT transporter” (priority 2002, published 2003).

Tested on: human or rat SMVT
Settings: voltage-clamped Xenopus oocytes; cited from earlier work

## O=C(O)CCCC[C@@H]1SC[C@@H]2NC(=O)N[C@@H]21 [biotin]
  Vmax: 25-50 pmol/oocyte/hour
  maximal sodium-dependent electrogenic response: 50-100 nA
